Laboratory results taken from patent US6818620B2, “Synthetic compounds and compositions with enhanced cell binding” (The Regents of the University of California, priority 1991, dated 2004).

System: cells
Experiment: Relative cell-binding activity of synthetic peptides (relative to the SEQ ID NO:1 peptide / P-15, or to collagen)
Format: cell-based
Protocol: Several more synthetic peptides were prepared and tested for cell binding activity (relative to the SEQ ID NO:1 peptide) all of which have the β-bend feature and which have excellent cell binding activity.
The relative efficiencies of some synthetic peptides of this invention for cell-binding activity (relative to the inventive peptide illustrated in Examples 1 and 2) are set out in Table 4.

Substance: -Ile-Ala- (IA; OTHER INFORMATION: synthetic peptide; OTHER INFORMATION: N-acetyl Isoleucine; OTHER INFORMATION: alanyl-methylamide) [the dipeptide -Ile-Ala- itself]
- biological activity relative to that of P-15: 60%
- cell binding activity compared with P-15 region / SEQ ID NO:1 peptide (in words): quite active
